Here are results for one compound from US20060094693A1, “Methods and compositions for treating glucose-associated conditions, metabolic syndrome, dyslipidemias and other conditions” (Point Therapeutics, Inc., priority 2004, published 2006).

The chains behind the UniProt entries cited, without tags or fusion partners. Residues count along the entry.
UniProt P27487, 39-766 limits assumed: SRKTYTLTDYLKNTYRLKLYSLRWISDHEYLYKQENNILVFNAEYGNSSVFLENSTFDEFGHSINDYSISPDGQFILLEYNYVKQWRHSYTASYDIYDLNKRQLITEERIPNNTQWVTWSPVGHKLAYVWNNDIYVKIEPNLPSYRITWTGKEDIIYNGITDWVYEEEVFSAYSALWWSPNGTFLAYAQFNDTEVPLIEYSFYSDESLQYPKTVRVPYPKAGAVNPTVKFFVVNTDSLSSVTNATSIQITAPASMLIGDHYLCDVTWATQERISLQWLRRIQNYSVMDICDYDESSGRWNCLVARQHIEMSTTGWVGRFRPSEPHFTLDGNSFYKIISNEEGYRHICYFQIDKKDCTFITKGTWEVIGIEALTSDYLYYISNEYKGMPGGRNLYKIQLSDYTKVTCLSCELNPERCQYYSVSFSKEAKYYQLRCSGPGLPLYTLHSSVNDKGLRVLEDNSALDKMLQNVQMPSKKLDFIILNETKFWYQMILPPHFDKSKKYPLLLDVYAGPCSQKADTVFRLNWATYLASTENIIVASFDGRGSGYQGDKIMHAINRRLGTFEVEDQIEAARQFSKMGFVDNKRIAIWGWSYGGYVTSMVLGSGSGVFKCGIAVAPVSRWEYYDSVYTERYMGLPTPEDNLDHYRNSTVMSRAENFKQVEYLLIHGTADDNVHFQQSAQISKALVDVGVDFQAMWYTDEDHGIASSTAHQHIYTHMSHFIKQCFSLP

This assay addresses T1, soluble recombinant human DPP-IV (Homo sapiens, UniProt P27487).
T1 construct: immunoglobulin kappa light chain secretion signal (pSecTag2-B) (N, cleaved yes); made in house; host or cells: 293T cells, transient transfection; unpurified culture supernatant used
Put plainly: In vitro assay of enzymatic activity of recombinant soluble DPP-IV and inhibition by amino boronic dipeptides. Format: biochemical. Conditions: assayed 3 minutes, 78 minutes and 16 hours after addition of Ala-Pro-AFC. The source says:
Production of soluble recombinant human DPP-IV. Based on information on the N-terminus of serum DPP-IV (15), a truncated DPP-IV was engineered in which a signal/leader sequence was joined to the residue in DPP-IV corresponding to the N-terminus of serum DPP-IV to allow secretion. The cDNA encoding the desired truncated human DPP-IV dimer enzyme was engineered into the mammalian secretion vector pSecTag2 (Cat# V900-20, InVitrogen Corporation). The vector, available in A, B or C versions, representing three possible phases for gene fusion, contained an immunoglobulin-kappa light chain secretion signal followed by a selection of restriction sites for gene insertion. […]
In vitro assay of enzmatic activity ofrecombinant soluble DPP-IV and inhibition by amino boronic dipeptides. […] The reaction mixture was incubated at room temperature, and production of the fluorescent AFC product was measured in a fluorometer (excitation, 400 nm; emission 505 nm), either by continuous monitoring or after termination with a one to one-tenth volume of 1 -M sodium acetate, pH 4.5. Fluorometric reading were made with a Molecular Dynamics Spectra Max GeminiXS capable of reading 96-well microtiter plates. […]

For the compound `CC(C)[C@H](N)C(=O)N1CCC[C@H]1B(O)O` [Val-boroPro], the “persistence of DPP-IV inhibition after preincubation” value is given as “sustained DPP-IV inhibition”.
